{"sequences": {"note": "Protein sequences, listed by entry. Tags and fused reporters are not part of them. Residues count along the entry.", "UniProt P14416, 1-414 isoform 2": "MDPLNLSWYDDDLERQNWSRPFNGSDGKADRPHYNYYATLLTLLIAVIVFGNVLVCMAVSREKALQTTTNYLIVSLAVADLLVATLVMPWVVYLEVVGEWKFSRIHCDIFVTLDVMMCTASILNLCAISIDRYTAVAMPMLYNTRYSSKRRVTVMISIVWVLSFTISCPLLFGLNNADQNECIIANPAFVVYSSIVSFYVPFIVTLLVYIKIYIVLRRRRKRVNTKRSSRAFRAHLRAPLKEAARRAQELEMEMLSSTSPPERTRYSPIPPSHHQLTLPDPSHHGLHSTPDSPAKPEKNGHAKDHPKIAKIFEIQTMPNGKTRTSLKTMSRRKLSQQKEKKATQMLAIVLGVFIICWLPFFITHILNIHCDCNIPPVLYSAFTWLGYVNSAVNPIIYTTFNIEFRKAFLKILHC", "UniProt P41143, whole entry partner": "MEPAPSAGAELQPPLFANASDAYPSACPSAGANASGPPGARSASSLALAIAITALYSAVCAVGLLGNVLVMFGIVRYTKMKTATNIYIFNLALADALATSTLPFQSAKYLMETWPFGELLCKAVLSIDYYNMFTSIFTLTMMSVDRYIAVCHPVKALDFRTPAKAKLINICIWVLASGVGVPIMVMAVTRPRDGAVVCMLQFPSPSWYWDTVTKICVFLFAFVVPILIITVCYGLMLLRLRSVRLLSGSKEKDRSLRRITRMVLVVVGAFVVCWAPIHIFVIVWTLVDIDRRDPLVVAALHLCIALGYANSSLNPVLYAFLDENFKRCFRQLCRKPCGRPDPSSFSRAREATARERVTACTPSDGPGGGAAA"}, "source": "patent US8697372B2", "about": "“Method for determining the binding of a given compound to a membrane receptor” (CIS Bio International, priority 2009, dated 2014)", "molecular_target": "Dopamine D2 receptor implicated in the heterodimer with Delta Opioid (Homo sapiens, UniProt P14416)", "details": "3 nM red antagonist of the dopamine D2 receptor, Delta opioid receptor labeled with SNAP-Lumi4Tb, HEK293T cells, FIG. 11"}
{"smiles": "CCCN(CCc1ccccc1)C1CCc2c(O)cccc2C1", "note": "(centres unmarked) [PPHT]", "values": [{"measurement": "Competition with the fluorescent reference ligand and binding to the heterodimers", "result": "compete with the fluorescent reference ligand and bind to the heterodimers"}]}
{"smiles": "CCN1CCC[C@H]1CNC(=O)c1cc(S(N)(=O)=O)ccc1OC", "note": "[Sulpiride, (S)-(−)-Sulpiride]", "values": [{"measurement": "Competition with the fluorescent reference ligand and binding to the heterodimers", "result": "compete with the fluorescent reference ligand and bind to the heterodimers"}]}
